In test [1] the target is RAC-gamma serine/threonine-protein kinase (Homo sapiens, UniProt Q9Y243).
Test [2] deals with T1, RAC-alpha serine/threonine-protein kinase (Homo sapiens, UniProt P31749).
The target of test [3] is T1, RAC-alpha serine/threonine-protein kinase. The source holds these as a separate data set.

Amino acid sequences for entries named in this document (tags omitted). A change or cut given only in a name is not applied to a line headed by its entry.
UniProt Q9Y243: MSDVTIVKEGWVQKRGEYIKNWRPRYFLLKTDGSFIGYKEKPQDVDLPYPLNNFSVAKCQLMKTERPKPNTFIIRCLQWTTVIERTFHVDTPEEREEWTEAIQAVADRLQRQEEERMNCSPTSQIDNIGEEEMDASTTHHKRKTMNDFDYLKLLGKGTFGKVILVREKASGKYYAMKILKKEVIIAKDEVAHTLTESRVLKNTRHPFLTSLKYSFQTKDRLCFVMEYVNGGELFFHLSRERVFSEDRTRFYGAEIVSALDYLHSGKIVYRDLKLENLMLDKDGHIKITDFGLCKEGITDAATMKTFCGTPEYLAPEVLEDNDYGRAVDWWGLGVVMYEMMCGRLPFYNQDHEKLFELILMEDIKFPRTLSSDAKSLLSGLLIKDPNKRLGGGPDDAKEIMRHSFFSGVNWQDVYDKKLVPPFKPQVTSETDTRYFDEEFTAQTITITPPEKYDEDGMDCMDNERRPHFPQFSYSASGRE
UniProt P31749: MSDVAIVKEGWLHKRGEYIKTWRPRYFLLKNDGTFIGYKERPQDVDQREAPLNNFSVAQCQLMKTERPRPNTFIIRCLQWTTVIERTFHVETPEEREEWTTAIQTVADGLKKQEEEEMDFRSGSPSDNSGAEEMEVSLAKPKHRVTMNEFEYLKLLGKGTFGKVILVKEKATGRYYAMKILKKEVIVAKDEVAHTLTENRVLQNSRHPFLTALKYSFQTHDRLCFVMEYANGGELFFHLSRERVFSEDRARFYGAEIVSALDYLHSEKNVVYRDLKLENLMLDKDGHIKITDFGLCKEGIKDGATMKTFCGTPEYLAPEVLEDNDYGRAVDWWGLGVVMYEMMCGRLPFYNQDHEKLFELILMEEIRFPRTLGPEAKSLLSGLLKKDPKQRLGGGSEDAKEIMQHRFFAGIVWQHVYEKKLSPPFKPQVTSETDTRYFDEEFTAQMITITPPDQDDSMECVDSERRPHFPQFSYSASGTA

This passage reports IC50 results from ChEMBL document CHEMBL1140130, “Identification of 4-(2-(4-amino-1,2,5-oxadiazol-3-yl)-1-ethyl-7-{[(3S)-3-piperidinylmethyl]oxy}-1H-imidazo[4,5-c]pyridin-4-yl)-2-methyl-3-butyn-2-ol (GSK690693), a novel inhibitor of AKT kinase” (J Med Chem, 2008).

pIC50: −log10 of the molar value.

For the compound `CCn1c(-c2nonc2N)nc2cncc(C(=O)NC3CCNCC3)c21`, the negative logarithm of the IC50 (pIC50) in test [1] was 5.64.
For the compound `CCn1c(-c2nonc2N)nc2c(C#CC(C)(C)O)ncc(OCCCCN)c21`, the pIC50 in test [2] is 8.05; in test [3] it was 5.82.

One may read the pIC50 as the IC50 on a negative log10 scale, so that one unit is a factor of ten. A low value points to a high IC50.
